Values of other authors, collected in article PMC8032764 (Scientific Reports, 2021).

Sequences of proteins named here, by UniProt entry; tags and fusion partners are left off. Residues count along the entry.
UniProt P18507, 40-475: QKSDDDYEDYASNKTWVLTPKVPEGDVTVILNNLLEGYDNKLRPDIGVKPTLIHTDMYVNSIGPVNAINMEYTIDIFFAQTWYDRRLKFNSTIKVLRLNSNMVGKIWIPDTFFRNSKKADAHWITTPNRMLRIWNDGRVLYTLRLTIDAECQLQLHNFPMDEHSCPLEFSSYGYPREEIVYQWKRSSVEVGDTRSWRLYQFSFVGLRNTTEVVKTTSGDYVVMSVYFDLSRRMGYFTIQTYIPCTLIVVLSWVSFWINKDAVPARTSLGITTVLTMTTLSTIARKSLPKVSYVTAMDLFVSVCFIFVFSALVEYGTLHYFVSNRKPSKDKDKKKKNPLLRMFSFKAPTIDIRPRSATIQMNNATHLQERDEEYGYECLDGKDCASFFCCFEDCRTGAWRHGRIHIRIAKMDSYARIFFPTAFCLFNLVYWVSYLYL
UniProt P48169, 36-554: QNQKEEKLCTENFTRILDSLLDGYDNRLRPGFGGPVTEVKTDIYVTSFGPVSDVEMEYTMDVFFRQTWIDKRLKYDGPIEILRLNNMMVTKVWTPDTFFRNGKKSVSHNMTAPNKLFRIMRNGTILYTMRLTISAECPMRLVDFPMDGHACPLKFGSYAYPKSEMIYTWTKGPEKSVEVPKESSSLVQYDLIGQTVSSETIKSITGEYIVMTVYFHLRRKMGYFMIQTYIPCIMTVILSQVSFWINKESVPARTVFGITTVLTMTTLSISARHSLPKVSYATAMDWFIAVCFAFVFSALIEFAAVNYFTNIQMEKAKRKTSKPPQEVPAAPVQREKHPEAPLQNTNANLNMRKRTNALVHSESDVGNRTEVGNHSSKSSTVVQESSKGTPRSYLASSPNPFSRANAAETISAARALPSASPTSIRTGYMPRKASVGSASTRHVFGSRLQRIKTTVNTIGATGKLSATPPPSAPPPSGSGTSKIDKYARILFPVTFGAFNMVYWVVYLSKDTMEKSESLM

Biological target: T1, human α4β3γ2 (Homo sapiens, UniProt P18507+P48169)
T1 construct: expressed in transfected cells; host or cells: HEK293-EBNA, transient
Settings: previously determined; read-out: Kd of the radiolabel; cited from earlier work

SMILES: [3H]C([3H])([3H])N1Cc2c(C(=O)OCC)ncn2-c2ccc(N=[N+]=[N-])cc2C1=O [Ro 15-4513, ethyl 8-azido-6-oxo-5-(tritritiomethyl)-4H-imidazo[1,5-a][1,4]benzodiazepine-3-carboxylate]
- Kd: 1.01 nM
